The source of these data is patent US20050282745A1, “Non-mammalian GnRH analogs and uses thereof in regulation of fertility and pregnancy” (priority 2001, published 2005).

This experiment relates to chorionic peptidase-1 (C-ase-1). As to the kind of experiment: C-ase-1 enzyme activity assay, competition for degradation of GnRH.

For the compound `CC(C)C[C@H](NC(=O)CNC(=O)[C@H](Cc1ccc(O)cc1)NC(=O)[C@H](CO)NC(=O)[C@H](Cc1c[nH]c2ccccc12)NC(=O)[C@H](Cc1c[nH]cn1)NC(=O)[C@@H]1CCC(=O)N1)C(=O)N[C@@H](CCC(N)=O)C(=O)N1CCC[C@H]1C(=O)NCC(N)=O` [chicken I GnRH], the “relative potency of inhibition of C-ase-1 degradation of GnRH, compared to GnRH” value (Example V) was 0.6. Besides, for the setting “Example VII”, the “potency as competitor compared with salmon or chicken II GnRHs” value was “two-fold more potent” and the “potency as competitor for GnRH degradation by C-ase-1 compared with GnRH” value was “three-fold less potent”.
